Test results reported in BindingDB's records for US20240034743 (Qilu Pharmaceutical, 2024).

Protein sequences, listed by entry. Tags and fused reporters are not part of them. Residues count along the entry.
UniProt P00533, 25-1210 T790M/C797S/L858R limits assumed: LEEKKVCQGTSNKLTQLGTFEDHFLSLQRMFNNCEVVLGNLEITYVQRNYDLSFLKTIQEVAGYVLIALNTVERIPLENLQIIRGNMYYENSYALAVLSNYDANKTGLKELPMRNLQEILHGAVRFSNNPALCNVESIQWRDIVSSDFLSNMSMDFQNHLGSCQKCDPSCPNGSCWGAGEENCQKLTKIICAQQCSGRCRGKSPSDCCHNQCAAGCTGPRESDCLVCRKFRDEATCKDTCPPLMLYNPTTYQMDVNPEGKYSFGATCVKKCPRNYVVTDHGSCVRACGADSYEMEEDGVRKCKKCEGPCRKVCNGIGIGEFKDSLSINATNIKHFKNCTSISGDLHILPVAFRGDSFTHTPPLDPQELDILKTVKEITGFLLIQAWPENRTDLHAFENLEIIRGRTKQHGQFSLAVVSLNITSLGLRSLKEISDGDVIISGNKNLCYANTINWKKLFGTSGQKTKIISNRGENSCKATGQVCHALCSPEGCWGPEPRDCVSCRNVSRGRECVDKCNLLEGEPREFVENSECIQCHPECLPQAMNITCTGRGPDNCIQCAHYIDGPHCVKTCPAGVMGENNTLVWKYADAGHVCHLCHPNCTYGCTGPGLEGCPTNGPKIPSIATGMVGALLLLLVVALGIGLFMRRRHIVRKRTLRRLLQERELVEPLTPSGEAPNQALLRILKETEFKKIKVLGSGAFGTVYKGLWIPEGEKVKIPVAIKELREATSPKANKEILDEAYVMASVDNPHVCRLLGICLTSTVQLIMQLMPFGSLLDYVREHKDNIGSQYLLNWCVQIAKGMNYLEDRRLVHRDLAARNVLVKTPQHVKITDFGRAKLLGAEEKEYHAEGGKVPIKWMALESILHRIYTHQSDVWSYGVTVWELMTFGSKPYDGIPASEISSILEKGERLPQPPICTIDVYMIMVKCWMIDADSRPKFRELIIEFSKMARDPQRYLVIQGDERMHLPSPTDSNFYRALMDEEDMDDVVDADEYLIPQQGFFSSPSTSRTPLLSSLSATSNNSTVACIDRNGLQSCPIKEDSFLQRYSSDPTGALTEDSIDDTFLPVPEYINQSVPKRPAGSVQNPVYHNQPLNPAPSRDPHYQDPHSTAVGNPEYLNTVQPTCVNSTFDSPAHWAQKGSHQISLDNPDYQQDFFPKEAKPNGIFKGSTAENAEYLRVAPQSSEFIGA
UniProt P00533, 25-1210 limits assumed: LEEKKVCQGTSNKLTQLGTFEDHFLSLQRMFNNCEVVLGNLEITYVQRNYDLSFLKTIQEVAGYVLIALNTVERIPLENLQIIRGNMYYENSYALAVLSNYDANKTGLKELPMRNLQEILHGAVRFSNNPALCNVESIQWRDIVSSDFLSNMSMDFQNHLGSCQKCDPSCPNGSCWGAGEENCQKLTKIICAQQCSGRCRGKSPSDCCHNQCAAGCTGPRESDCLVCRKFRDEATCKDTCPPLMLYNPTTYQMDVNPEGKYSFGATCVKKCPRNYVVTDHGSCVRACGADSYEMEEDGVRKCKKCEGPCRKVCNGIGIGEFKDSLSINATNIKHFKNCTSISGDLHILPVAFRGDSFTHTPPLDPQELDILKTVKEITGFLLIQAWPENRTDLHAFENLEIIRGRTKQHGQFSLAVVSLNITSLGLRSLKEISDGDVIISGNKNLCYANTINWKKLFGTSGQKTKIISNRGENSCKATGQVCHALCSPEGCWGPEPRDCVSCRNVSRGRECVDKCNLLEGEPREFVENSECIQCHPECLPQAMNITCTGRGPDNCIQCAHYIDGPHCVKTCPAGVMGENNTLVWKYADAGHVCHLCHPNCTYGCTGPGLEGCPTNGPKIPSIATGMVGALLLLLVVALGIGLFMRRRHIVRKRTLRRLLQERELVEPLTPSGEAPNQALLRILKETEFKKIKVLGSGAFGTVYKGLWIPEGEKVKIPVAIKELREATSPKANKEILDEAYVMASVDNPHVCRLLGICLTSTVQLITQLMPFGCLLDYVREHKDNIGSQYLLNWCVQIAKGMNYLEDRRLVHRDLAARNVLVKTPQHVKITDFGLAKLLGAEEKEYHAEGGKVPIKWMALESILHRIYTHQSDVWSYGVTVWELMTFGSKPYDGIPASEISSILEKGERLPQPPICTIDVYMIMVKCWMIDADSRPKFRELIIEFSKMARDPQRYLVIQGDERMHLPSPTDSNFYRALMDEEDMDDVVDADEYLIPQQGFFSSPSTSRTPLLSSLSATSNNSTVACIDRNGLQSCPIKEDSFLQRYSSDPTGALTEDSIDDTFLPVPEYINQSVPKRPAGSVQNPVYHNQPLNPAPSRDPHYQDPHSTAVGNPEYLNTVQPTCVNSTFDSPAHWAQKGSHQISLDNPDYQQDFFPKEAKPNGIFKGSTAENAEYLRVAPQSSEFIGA

What was measured:
[1] = target: Epidermal growth factor receptor [L858R,T790M,C797S] (Homo sapiens, UniProt P00533, T790M/C797S/L858R); assay: Not found
Text: Not found

[2] = target: Epidermal growth factor receptor (Homo sapiens, UniProt P00533); assay: Not found
Text: Not found

SMILES: COc1nc2c(cc1Nc1ncc(Br)c(Nc3cccnc3NP(C)(C)=O)n1)-c1cnn(C)c1CCN2C(C)C
- IC50 [1]: < 1 nM
- IC50 [2]: 5.5 nM
